Results as given in US7566727B2, “2-(1-aza-bicyclo[2.2.2]oct-3-yl)-2,3-dihydro-isoindole-1-one/5,6-dihydro-furo[2,3-c] pyrrol-4-one derivative ligands for alpha 7 nicotinic acetylcholine receptor” (priority 2004, dated 2009).

Chains of the proteins cited; added tags and fusions are not shown. Residues count along the entry.
UniProt Q05941, 23-502 limits assumed: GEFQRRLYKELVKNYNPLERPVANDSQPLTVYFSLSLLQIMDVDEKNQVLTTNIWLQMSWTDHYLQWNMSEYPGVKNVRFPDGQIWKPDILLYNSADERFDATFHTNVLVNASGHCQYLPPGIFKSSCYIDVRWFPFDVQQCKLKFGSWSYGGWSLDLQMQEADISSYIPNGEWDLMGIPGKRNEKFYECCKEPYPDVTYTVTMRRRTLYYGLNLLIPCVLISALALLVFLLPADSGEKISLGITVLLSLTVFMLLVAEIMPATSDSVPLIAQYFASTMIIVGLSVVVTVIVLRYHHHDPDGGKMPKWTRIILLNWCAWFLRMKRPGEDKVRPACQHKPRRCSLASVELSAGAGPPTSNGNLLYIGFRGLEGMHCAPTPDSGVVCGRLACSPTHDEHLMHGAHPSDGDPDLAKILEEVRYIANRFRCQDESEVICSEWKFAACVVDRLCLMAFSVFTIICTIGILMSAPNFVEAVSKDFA

Biological target: α7 nAChR subtype (Rattus norvegicus, UniProt Q05941)
Settings: read-out: α7 Ki; [125I]α-BTX displacement, rat hippocampal membranes

For `CCCC(=O)Nc1cccc(-c2ccc3c(c2)C(=O)N([C@H]2CN4CCC2CC4)C3)c1`, the Ki was 4.5 nM.
